Target: Carbonic anhydrase 1 (Homo sapiens) (UniProt P00915)
Test: Activation constant towards human cytosolic carbonic anhydrase I; Activator

Protein sequences, listed by entry. Tags and fused reporters are not part of them. Residues count along the entry.
UniProt P00915, 2-261 limits assumed: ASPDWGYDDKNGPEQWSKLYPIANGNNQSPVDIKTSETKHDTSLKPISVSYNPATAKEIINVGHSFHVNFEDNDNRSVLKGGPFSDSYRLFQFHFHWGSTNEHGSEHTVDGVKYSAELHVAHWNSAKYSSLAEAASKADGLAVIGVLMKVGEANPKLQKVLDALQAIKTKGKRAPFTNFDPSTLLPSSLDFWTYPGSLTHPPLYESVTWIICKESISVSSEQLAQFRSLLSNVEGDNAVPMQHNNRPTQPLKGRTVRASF

CP(=O)(O)O showed a KA of 1.2 µM.

Reference: ChEMBL document CHEMBL1142045, “Carbonic anhydrase inhibitors. Interaction of isozymes I, II, IV, V, and IX with organic phosphates and phosphonates” (Bioorg Med Chem Lett, 2005)
